The term LD50 denotes the dose at which mortality reaches 50%. The low end stands for a more toxic substance, the high end for a less toxic substance.

The data set concerns rats. The experiment in a line: Acute toxicity after oral administration. In kind it is in vivo. As to conditions: rat.

Some results are limits rather than exact numbers.

“salt of erythromycin propionate with inosine-5-phosphoric acid in the molar ratio 2:1 [F.F.001]”: the LD50 is more than 6000 mg/kg.

The values above are taken from patent EP0139891A2, “Pharmaceutical compositions with antibiotic-immunostimulating activity” (B.T.B. INDUSTRIA CHIMICA S.p.A., priority 1983, dated 1985).
